The numbers were not newly measured in patent publication US20070092565A1, “Gastric retention drug delivery system” (PHARMASCIENCE INC., priority 2005, published 2007), which cites them from elsewhere.

Read-outs that look alike come from different tables or passages of the source.

Turning to “1-(aminomethyl) cyclohexane acetic acid [Gabapentin]”, the oral bioavailability reads like this: (dose 900 mg/day given in 3 divided doses) 60%; (dose 2400 mg/day given in 3 divided doses) 34%.
